## scFv variants of Ab-14 (light chain) against a SARS-CoV-2 spike peptide

Binding partner: SARS-CoV-2 spike HR2 peptide, sequence PDVDLGDISGINAS.

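This is the validation round: designs drawn from the data on random variants, tested in the same kind of assay. Group labels follow the data file (Ctrl: baseline library sampled from a position-specific scoring matrix, with some repeated check sequences; En: ensemble of fine-tuned language models; GP: Gaussian process model; HC: hill climbing; Gen: genetic algorithm; Gibbs: Gibbs sampling; a sequence that several methods proposed may carry one label only). The assay is AlphaSeq: two haploid yeast populations carry antibody and antigen on their surface. Mating (16 h, 30 °C) was followed by selection of diploids and sequencing of their barcodes. Each replicate has its own calibration line, from reference interactions of the BCL2 family. Each pool was mated in six replicate cultures.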

Each scFv is VH, three GGGGS repeats, VL, as in the parent Ab-14, and differs from it in the CDRs of the light chain only.
VH: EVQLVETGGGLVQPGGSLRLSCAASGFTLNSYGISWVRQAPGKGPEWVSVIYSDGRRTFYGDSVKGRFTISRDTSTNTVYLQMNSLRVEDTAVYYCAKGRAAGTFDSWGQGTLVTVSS
VL: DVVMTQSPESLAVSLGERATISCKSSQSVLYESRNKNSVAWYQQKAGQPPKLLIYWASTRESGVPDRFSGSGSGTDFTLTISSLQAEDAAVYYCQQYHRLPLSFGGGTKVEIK

Variants are written as CDR1, CDR2 and CDR3 of the light chain (limits as in the source). Parent: KSSQSVLYESRNKNSVA, WASTRES, QQYHRLPLS.
Affinities are written as log10 Kd with Kd in nM; a lower number is a better binder.
A mean of the replicates is given; it leaves out those without a signal.
"nd" marks a missing value. The strain was present, yet no cells mated with the target were sequenced in any replicate, which points to weak or no binding.
Background: pairings of all light chain designs with three empty control strains gave a value in 4% of cases (median 2.64, 5th percentile 1.59). Values in that range, when seen in few replicates, are hard to tell from nonspecific mating.
The range of this assay differs from that of the first round, and the authors advise against merging the two.
The authors averaged sequences with at least three values out of six and counted those with two or fewer as poor binders.
Of ten entries with the parent sequence, four were seen in most replicates (averages 0.34 to 2.37), three in one and three in none, so single entries are noisy.

| log10 Kd (nM), mean | seen in | CDR-L1 | CDR-L2 | CDR-L3 | group |
|---|---|---|---|---|---|
| 0.23 | 6 of 6 | KSYQSSWYEDRNKNSVA | NASLRCS | QQYHRLPLS | GP_Gibbs |
| -0.04 | 6 of 6 | KSSISHLYESRNKNSVA | AASTRES | QQYHRLPLS | GP_HC |
| 0.14 | 6 of 6 | KVKQSWLYESRMSNNVA | NASKRES | QQYHRLPLS | GP_Gibbs |
| 0.24 | 6 of 6 | KVMQSMWYESRNKNSVA | HASMREQ | QQYHRLPLQ | GP_Gibbs |
| 0.21 | 6 of 6 | MISDLMMYGSRNKNSVA | DLSTRGS | QQYHRLPLS | En_HC |
| 0.41 | 6 of 6 | KMSQQGLYESRNKNSVA | WASTRES | QQYHRLPLS | Ctrl |
| 0.24 | 6 of 6 | KLEQSRNYESRNKNSVA | NASTRES | QQYHRLPLS | GP_HC |
| 1.96 | 6 of 6 | KINERMRSGENQQHSIA | NATEIVK | QQYHNLPLG | En_Gibbs |
| nd | 0 of 6 | IVSQLMLWGMHVKNSIA | EAQTRLN | QQYDRLPLI | En_Gen |
| 0.50 | 6 of 6 | KLTMITGLEKVSKNNVA | EMETRER | QQYNRLPLS | En_Gen |
| -0.01 | 6 of 6 | KMPQSELYESRNKNSVA | NASTRMS | QQYHRLPLS | GP_Gen |
| 1.19 | 6 of 6 | TIGQMLMQGIRNRSNVA | EVSQRLN | QQYDRLPLI | En_Gen |
| -0.04 | 6 of 6 | KVSQSVLYESRNKNSVA | NASTRES | QDYHRLPLS | GP_Gen |
| 1.49 | 5 of 6 | NISESMYFQSINKNNIA | EMSTRER | QHYHRLPLS | En_HC |
| 1.80 | 6 of 6 | KLLQTVMNETRHRNNVA | HMTTRED | QQYFRLPLS | En_HC |
| 0.07 | 6 of 6 | HVLQSVLYESRNKNSVA | HASTRED | QQYHQLPLS | GP_HC |
| 0.65 | 6 of 6 | KVSQSVLYESGTKNSVA | NASMRES | QQYHRLPLS | GP_HC |
| 0.07 | 6 of 6 | KQSQSVKMESRNKNSVA | DASTRES | QQYHRLPLS | GP_HC |
| -0.01 | 6 of 6 | KIGMTLNQLLHQKNNVA | DLVEREN | QQYFRLPLS | En_Gen |
| -0.60 | 6 of 6 | KMSQSFLYESRNKNSVA | DASTRES | QQYHRLPLS | GP_HC |
| -0.07 | 6 of 6 | KVSQSVLYESRNKASVA | NASTRES | QQYHRLPLS | GP_Gen |
| -0.66 | 6 of 6 | KVSQSYLYESRNKNSVA | NGSTRES | QQYHRLPLS | GP_Gen |
| 1.39 | 6 of 6 | MLQIEPNGYMGMRSNVA | DGSLVRM | QQYARLPLM | En_Gibbs |
| 1.89 | 5 of 6 | KSSQSVWYESRNTNSVA | WASTRES | QQYHVLPLS | Ctrl |
| nd | 0 of 6 | KSSQSVQYESENKNSVA | WASTRES | QQWARLPLS | Ctrl |
| 0.85 | 6 of 6 | KVSQLGLYGSRNKNSVA | EASTRES | QQYHRLPLD | GP_Gibbs |
| -0.36 | 6 of 6 | KLSQSVLYESRQKNSVA | NASTREE | QQYHRLPLS | GP_Gen |
| 2.70 | 1 of 6 | KSSQSVLYESRNKNSVA | EASTRES | QAYSRKPLS | Ctrl |
| -0.11 | 6 of 6 | HLSDSVLYESRNKNSVA | NASTRES | QQYHRLPLE | GP_HC |
| 0.85 | 6 of 6 | KISQSVLYESRNKNSVA | WASTREH | QQYHLLPLS | Ctrl |
| 1.50 | 6 of 6 | QIQGKLQEHGNQGANVA | QGVESKN | QQYFRLPLT | En_Gibbs |
| 0.37 | 6 of 6 | HLSQSQDLESVHKNSIA | DLMTRES | QQYHRLPLS | En_HC |
| 0.51 | 6 of 6 | KLSIMYQHTSRNKNNIA | ERSTREQ | QQYHHLPLS | En_HC |
| 0.33 | 6 of 6 | SMSNLQINPDVWKNSIA | DAEHVEY | QQYSRLPLT | En_Gibbs |
| -0.55 | 6 of 6 | KSSQSWLYESRNKNSVA | GASERES | QQYHRLPLS | GP_HC |
| 2.91 | 2 of 6 | KFSTSVLYEWRNMNSVA | WASTRES | QQYHGLPLS | Ctrl |
| 1.50 | 6 of 6 | MISQLYNMGQFAINSVA | QASERSE | QQYDRLPLI | En_Gen |
| 0.68 | 6 of 6 | RLDSVWEQLTNRAQNVA | NATTVIA | QQYMRLPLV | En_Gibbs |
| 0.53 | 6 of 6 | KISQMQRVGSTHGNSIA | EEQTRAN | QQYHRLPLS | En_Gen |
| 0.67 | 6 of 6 | KLPNSTLYESRQKNSVA | NASTRES | QQYHRLPLS | GP_HC |
| -0.33 | 6 of 6 | KLPQSVPYESRNKNSVA | NASTRES | QQYHRLPLS | GP_Gen |
| 0.96 | 6 of 6 | KVYWSVDYGDRNKNSVA | HASRRES | QQYHRLPLS | GP_Gibbs |
| nd | 0 of 6 | FLAYALDQDGLIKNNIA | QDNLLEN | QQYERLPLG | En_Gibbs |
| 2.27 | 1 of 6 | KSSQSVLYESRNKNSIA | WASTRIS | QQYKRLPLS | Ctrl |
| -0.28 | 6 of 6 | KLKGSVGYEERNKNSVA | GASQRES | QQYHRLPLS | GP_Gibbs |
| 0.37 | 6 of 6 | KLSQSVLYEQRNKNSVA | EASTRES | QDYHRLPLS | GP_Gen |
| 0.18 | 6 of 6 | TMPQVWMYESKQKNNVA | EQSTRED | QQYFRLPLS | En_HC |
| 0.91 | 6 of 6 | TISQLHNMGTFAINSVA | QASIRNE | QQYDRLPLM | En_Gen |
| 0.11 | 6 of 6 | KLEQSVGYESRNKNSVA | NASTRES | QQYHRLPLS | GP_Gen |
| 0.01 | 6 of 6 | LLSGSMGYEQRNKNSVA | DASTRES | QAYHRLPLS | GP_Gibbs |
| -0.12 | 6 of 6 | KLSQSTLYEMRNTNSVA | QASQRLQ | QQYHRLPLS | GP_Gibbs |
| 1.60 | 6 of 6 | FLAYALDQDGLQKNNIA | QVNLLEN | QQYERLPLA | En_Gibbs |
| 0.39 | 6 of 6 | QVGQTRQADISNKKSIA | AGETLID | QQYGRLPFS | En_Gibbs |
| 0.34 | 6 of 6 | KFGQMVLTGAYVSNSVA | QSSTREN | QQYHRLPLS | En_HC |
| -0.14 | 6 of 6 | KLSQSWLYESRNKNSVA | GASSRES | QQYHRLPLS | GP_HC |
| 1.24 | 6 of 6 | KITGMWTFESHQRNNIA | EESTRED | QSYHRLPLS | En_HC |
| -0.07 | 6 of 6 | KFSQSVLYESRTYNSVA | NASQRES | QQYHRLPLS | GP_HC |
| 0.88 | 6 of 6 | KFDLLMNDEKNANKNVA | GNVHHMA | QQYERLPLS | En_Gibbs |
| -0.31 | 6 of 6 | KLSQSELGESRNKNSVA | NASTRES | QQYHRLPLS | GP_Gen |
| 0.53 | 6 of 6 | KISQSVLKESENKNSVA | DASTRES | QQYHRLVLS | Ctrl |
| 0.89 | 6 of 6 | KLMLSLGESKQSERNIA | NMRVSVA | QQYDHLPLT | En_Gibbs |
| 0.01 | 6 of 6 | KFSQSVKMESRNKNSVA | DASTRES | QQYHRLPLS | GP_HC |
| 1.63 | 6 of 6 | HITYGMYVSGRYKSNIA | QAETRAK | QQYDRLPLI | En_Gen |
| 1.22 | 6 of 6 | KSSQGVMYESANKNSVA | SASTRES | QQYHRLPLW | Ctrl |
| 1.15 | 2 of 6 | KIMQTLNYEQFNVSNVA | GQETRER | QSYHRLPLS | En_HC |
| 0.49 | 6 of 6 | KMSDSVLYESRNKNSVA | WASTRES | QQYHRLPLS | Ctrl |
| 0.28 | 6 of 6 | NFSGSDQYQMQEQGNIA | QTEQKAN | QQYFRLPLT | En_Gibbs |
| 0.08 | 6 of 6 | KSSQSFLYESRNFNSVA | GASTRES | QQYHRLPLS | GP_HC |
| 2.16 | 6 of 6 | MVNSITDHMSKQTNNVA | ETTTREE | QQYDRLPLS | En_Gen |
| 2.26 | 4 of 6 | HSSQSVVYESRNKNSVA | WASTRES | QQYHRLPLS | Ctrl |
| nd | 0 of 6 | KSSQSVLPVSRNKNSVA | WASTRES | QQYHRLPLS | Ctrl |
| -0.01 | 6 of 6 | KLQQADLYESRNANSVA | QASQRLS | QCYHRLPLS | GP_Gibbs |
| nd | 0 of 6 | KNSQSVLYESRNKKSVA | QASTRES | QQYHRLWLS | Ctrl |
| 1.93 | 6 of 6 | KQSQSVLYESRNKNSVA | WASTRES | QQYHRLPLS | Ctrl |
| 0.88 | 6 of 6 | QIGMLLNFESKIVNNVA | QMETRVQ | QQYDRLPLS | En_Gen |
| -0.13 | 6 of 6 | KVSMSELYESRNKNSVA | NASTRES | QQYHRLPLS | GP_Gen |
| 0.99 | 6 of 6 | KSLQSVLYESRNKNSVA | HASTRED | QLYHRLPLM | GP_HC |

Extract of 4 entries:

| CDR-L1 | CDR-L2 | CDR-L3 | group | log10 Kd (nM), mean | seen in |
|---|---|---|---|---|---|
| KSSISHLYESRNKNSVA | AASTRES | QQYHRLPLS | GP_HC | -0.04 | 6 of 6 |
| KLSQSWLYESRNKNSVA | GASSRES | QQYHRLPLS | GP_HC | -0.14 | 6 of 6 |
| KSSQSFLYESRNFNSVA | GASTRES | QQYHRLPLS | GP_HC | 0.08 | 6 of 6 |
| KSSQGVMYESANKNSVA | SASTRES | QQYHRLPLW | Ctrl | 1.22 | 6 of 6 |

Values reported by Li et al. 2023, doi:10.1038/s41467-023-39022-2 (FLAb copy).